{
  "source": "patent US20260183365A1",
  "about": "“COMBINATION THERAPY FOR C3 INHIBITION” (Apellis Pharmaceuticals, Inc., priority 2016, published 2026)",
  "molecules": {"B1": {"name": "Eculizumab: humanized anti-C5 monoclonal antibody approved for treatment of PNH and aHUS (antibody, chains of the INN, looked up)", "heavy": "QVQLVQSGAEVKKPGASVKVSCKASGYIFSNYWIQWVRQAPGQGLEWMGEILPGSGSTEYTENFKDRVTMTRDTSTSTVYMELSSLRSEDTAVYYCARYFFGSSPNWYFDVWGQGTLVTVSSASTKGPSVFPLAPCSRSTSESTAALGCLVKDYFPEPVTVSWNSGALTSGVHTFPAVLQSSGLYSLSSVVTVPSSNFGTQTYTCNVDHKPSNTKVDKTVERKCCVECPPCPAPPVAGPSVFLFPPKPKDTLMISRTPEVTCVVVDVSQEDPEVQFNWYVDGVEVHNAKTKPREEQFNSTYRVVSVLTVLHQDWLNGKEYKCKVSNKGLPSSIEKTISKAKGQPREPQVYTLPPSQEEMTKNQVSLTCLVKGFYPSDIAVEWESNGQPENNYKTTPPVLDSDGSFFLYSRLTVDKSRWQEGNVFSCSVMHEALHNHYTQKSLSLSLG", "light": "DIQMTQSPSSLSASVGDRVTITCGASENIYGALNWYQQKPGKAPKLLIYGATNLADGVPSRFSGSGSGTDFTLTISSLQPEDFATYYCQNVLNTPLTFGQGTKVEIKRTVAAPSVFIFPPSDEQLKSGTASVVCLLNNFYPREAKVQWKVDNALQSGNSQESVTEQDSKDSTYSLSSTLTLSKADYEKHKVYACEVTHQGLSSPVTKSFNRGEC"}},
  "test_system": "PNH RBCs",
  "assay": "modified Ham's assay comparing CA28-2GS-BF with Soliris",
  "format": "cell-based, human",
  "conditions": "activated complement",
  "procedure": "Flow cytometry was performed after antibody staining using antibodies against CD59 and C3d. In this figure, quadrant 1 (Q1) and quadrant 3 (Q3) represent Type III cells. Quadrant 2 (Q2) and quadrant 4 (Q4) represent Types I and II cells. Q1 and Q2 represent cells with a significant and abnormally high amount of C3 activation product (e.g., C3d) deposition. Q3 and Q4 represent cells without significant C3d deposition or somewhat elevated level (right portion of Q4) but less so than Q2 cells.",
  "data": [
    {"molecule": "B1", "values": [
      {"measurement": "deposition of C3d on PNH RBCs", "value": "significant deposition of C3 activation products (e.g., C3d) occurs on Type III cells"}
    ]}
  ]
}
